Laboratory results reported in patent publication US20210220331A1, “INHIBITORS OF IRES-MEDIATED PROTEIN SYNTHESIS” (The Regents of the University of California, priority 2016, published 2021).

Tested on: LN229, LN18, LN428 and SF763 GBM lines
Experiment: Cell-cycle phase distribution and Annexin V apoptosis in four GBM lines
Format: cell-based
Procedure: Results are expressed as relative fold change in firefly (FF) luciferase activity and the mean and +S.D. are shown for three independent experiments. (B) Growth inhibition of GBM cell lines following 48 h culture in C11. Data represent mean±S.D. of three independent experiments. […] Control cell were treated with DMSO vehicle. Data are means±S.D., n=3. […] Percent apoptotic cells as determined via Annexin V staining are also shown below each graph. One of three experiments with similar results is shown.

Structure (SMILES): CC(C)n1nc(-c2cc3cc(O)ccc3[nH]2)c2c(N)ncnc21 [PP242, 2-(4-Amino-1-isopropyl-1H-pyrazolo[3,4-d]pyrimidin-3-yl)-1H-indol-5-ol]
- G1 arrest: increased G1 arrest
- percentage of apoptotic cells: induced the percentage of apoptotic cells
